{"sequences": {"note": "By UniProt entry, the sequences of proteins in these tests, tags left out.", "UniProt Q13285, whole entry, looked up": "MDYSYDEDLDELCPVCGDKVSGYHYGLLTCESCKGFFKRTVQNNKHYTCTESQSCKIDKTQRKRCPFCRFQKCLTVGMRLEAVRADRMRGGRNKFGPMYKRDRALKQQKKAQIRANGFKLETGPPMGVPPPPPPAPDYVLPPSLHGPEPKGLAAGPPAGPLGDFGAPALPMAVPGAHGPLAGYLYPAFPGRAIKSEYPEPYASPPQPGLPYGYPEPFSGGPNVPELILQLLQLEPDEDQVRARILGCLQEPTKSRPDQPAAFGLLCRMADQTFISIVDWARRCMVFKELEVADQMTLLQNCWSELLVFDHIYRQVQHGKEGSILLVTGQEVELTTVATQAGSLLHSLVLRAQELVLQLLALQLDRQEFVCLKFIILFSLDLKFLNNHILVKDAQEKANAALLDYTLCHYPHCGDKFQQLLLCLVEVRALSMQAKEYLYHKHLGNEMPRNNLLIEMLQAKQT"}, "source": "PubChem BioAssay AID522", "about": "(The Scripps Research Institute Molecular Screening Center, 2006)", "note": "This is a selection; strong and weak results do not stand in their true shares. Calls of active or inactive are those of the source.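 The calls were made as follows: active = activation above the mean activation of all tested compounds plus 3 SD (cut at about 50% in these data); inactive = the rest.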"}
{"target": "Steroidogenic factor 1 (Homo sapiens) (UniProt Q13285)", "assay": "activators of human SF-1, primary screen, cell-based, CHO-K1, Gal4-SF-1 LBD, luciferase luminescence (AID 522)", "conditions": "CHO-K1 Gal4-SF-1 LBD luciferase reporter; at 10 µM; active compounds read high; % increase over DMSO SF-1-specific signal", "method_in_brief": "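Assay system: CHO-K1 cells co-transfected with Gal4 DBD–human SF-1 LBD, 5xGal4 luciferase reporter / Input: 4,000 cells per well / Incubation: 20 h compound exposure at 37 °C after 1 h cell settling / Detection: SteadyLite luciferase luminescence / Control set: DMSO negative control and −SF1 background wells / Replication: one test per compound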"}
{"smiles": "Cc1c2non([O-])c-2c(C)[n+](=O)[n+]1[O-]", "activation": "inactive: -24.4%"}
{"smiles": "CCc1nc2c(n1)c1c(non1O)c1c2no[n+]1[O-]", "activation": "inactive: -12.7%"}
{"smiles": "O=C(OC1CN2CCC1CC2)c1cccc(Cl)c1", "note": "(stereo not given)", "activation": "inactive: -7.2%"}
{"smiles": "c1nnnn1CCn1cnnn1", "activation": "inactive: -17.9%"}
{"smiles": "O=P(Nc1nccs1)(c1ccccc1)c1ccccc1", "activation": "inactive: -6.5%"}
{"smiles": "O=P1(Nc2nc3ccc(Cl)cc3s2)COc2ccccc2O1", "note": "(stereo not given)", "activation": "inactive: 17.8%"}
{"smiles": "COC(=O)c1cc2c(s1)N=C(c1ccccc1)N(C)P2(=O)N1CCOCC1", "note": "(stereo not given)", "activation": "inactive: -2.5%"}
{"smiles": "CCOP1(=S)c2c(C)nn(CCC#N)c2N=C(c2ccc(F)cc2)N1C", "note": "(stereo not given)", "activation": "inactive: 3.9%"}
{"smiles": "CCOP1(=S)c2c(C)nn(CCC#N)c2N=C(c2ccccc2F)N1C", "note": "(stereo not given)", "activation": "inactive: -6.7%"}
{"smiles": "O=P(Nc1nccs1)(c1ccccc1)c1nc2ccccc2s1", "note": "(stereo not given)", "activation": "inactive: -14.5%"}
{"smiles": "Cc1cccc(OCC(=O)OC2CN3CCC2CC3)c1", "note": "(stereo not given)", "activation": "inactive: 22.2%"}
{"smiles": "Clc1n[nH]nc1-c1nn[nH][15n]1", "activation": "inactive: 29.1%"}
{"smiles": "O=P1(Nc2ccccn2)COc2ccccc2OC1", "activation": "inactive: -14.4%"}
{"smiles": "Cc1ccc(OCC(=O)OC2CN3CCC2CC3)cc1", "note": "(stereo not given)", "activation": "inactive: 2.1%"}
{"smiles": "O=P1(Nc2ccc(Br)cn2)COc2ccccc2OC1", "activation": "inactive: 1.6%"}
{"smiles": "O=P1(Nc2ncccn2)COc2ccccc2OC1", "activation": "inactive: 3.2%"}
{"smiles": "Cc1nn(-c2ccccc2)c2c1P(=O)(N1CCOCC1)N(C)C(c1ccccc1)=N2", "note": "(stereo not given)", "activation": "inactive: -11.5%"}
{"smiles": "O=C(COc1ccccc1)OC1CN2CCC1CC2", "note": "(stereo not given)", "activation": "inactive: -9.8%"}
{"smiles": "COP1(=S)c2c(C)nn(CCC#N)c2N=C(c2ccc(F)cc2)N1C", "note": "(stereo not given)", "activation": "inactive: 1.6%"}
{"smiles": "O=C(OC1CN2CCC1CC2)C12CC3CC(CC(C3)C1)C2", "note": "(stereo not given)", "activation": "inactive: 9.2%"}
